Assay results published in ChEMBL document CHEMBL2407019, “Protective activity of (1S,2E,4R,6R,7E,11E)-2,7,11-cembratriene-4,6-diol analogues against diisopropylfluorophosphate neurotoxicity: preliminary structure-activity relationship and pharmacophore modeling” (2013).

Columns and labels:
Hippocampus [1] = assay: Neuroprotective activity in Sprague-Dawley rat hippocampal slice assessed as reversal of DFP-induced damage at 10 uM measured after 2 hrs by electrophysiological assay; details: strain Sprague-Dawley
Hippocampus [2] = assay: Toxicity in Sprague-Dawley rat hippocampal slice at 10 uM measured after 1 hr by electrophysiological assay; details: in vivo, strain Sprague-Dawley

With `C/C1=C\CC/C(CO)=C/[C@H](O)C[C@@](C)(O)/C=C/[C@H](C(C)C)CC1` the Activity (Hippocampus [1]) was 75% and the Activity (Hippocampus [2]) was “Toxic”.
